Test results published in ChEMBL document CHEMBL5725448, “Substituted pyridobenzodiazepinone-derivatives and use thereof” (2018).

The chains behind the UniProt entries cited, without tags or fusion partners.
UniProt P09619, whole entry: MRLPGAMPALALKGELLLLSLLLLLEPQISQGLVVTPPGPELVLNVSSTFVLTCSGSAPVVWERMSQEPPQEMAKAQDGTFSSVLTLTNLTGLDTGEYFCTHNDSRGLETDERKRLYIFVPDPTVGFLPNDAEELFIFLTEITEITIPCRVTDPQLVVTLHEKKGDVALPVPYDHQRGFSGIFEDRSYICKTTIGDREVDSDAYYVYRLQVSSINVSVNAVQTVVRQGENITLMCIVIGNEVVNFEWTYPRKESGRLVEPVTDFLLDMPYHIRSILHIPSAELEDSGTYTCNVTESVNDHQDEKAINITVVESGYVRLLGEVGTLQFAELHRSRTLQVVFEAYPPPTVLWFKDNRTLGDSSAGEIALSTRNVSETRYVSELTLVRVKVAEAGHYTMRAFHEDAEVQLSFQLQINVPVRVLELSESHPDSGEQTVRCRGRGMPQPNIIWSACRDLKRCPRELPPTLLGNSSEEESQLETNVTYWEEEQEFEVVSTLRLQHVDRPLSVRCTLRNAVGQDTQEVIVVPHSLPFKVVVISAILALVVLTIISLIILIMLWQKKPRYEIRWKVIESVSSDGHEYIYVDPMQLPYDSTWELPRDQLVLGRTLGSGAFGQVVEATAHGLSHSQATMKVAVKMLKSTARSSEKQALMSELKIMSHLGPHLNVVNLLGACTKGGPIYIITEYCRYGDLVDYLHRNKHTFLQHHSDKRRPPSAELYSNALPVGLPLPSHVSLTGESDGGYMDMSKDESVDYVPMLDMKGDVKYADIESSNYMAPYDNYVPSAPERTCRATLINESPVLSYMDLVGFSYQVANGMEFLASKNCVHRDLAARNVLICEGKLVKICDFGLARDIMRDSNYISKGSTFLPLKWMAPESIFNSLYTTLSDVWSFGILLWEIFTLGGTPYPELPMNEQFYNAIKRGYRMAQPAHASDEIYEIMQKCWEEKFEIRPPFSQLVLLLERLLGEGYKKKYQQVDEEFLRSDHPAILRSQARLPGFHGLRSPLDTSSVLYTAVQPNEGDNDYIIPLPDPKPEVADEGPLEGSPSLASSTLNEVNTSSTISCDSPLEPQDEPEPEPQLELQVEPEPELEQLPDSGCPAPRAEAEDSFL

Biological target: Platelet-derived growth factor receptor beta (Homo sapiens, UniProt P09619)
Experiment: biochemical

CSCC(CO)NCc1ccc2c(c1)NC(=O)c1c(Nc3cc(O)c(C)cc3F)ccnc1N2 (stereo unspecified)
IC50: 2.08 nM
